Molecular target: T1, SETD2(1434-1711) (Homo sapiens, UniProt Q9BYW2)
T1 construct: SETD2 (1434-1711) Assay; catalogue N/A
T1 sequence (Q9BYW2 1434-1711): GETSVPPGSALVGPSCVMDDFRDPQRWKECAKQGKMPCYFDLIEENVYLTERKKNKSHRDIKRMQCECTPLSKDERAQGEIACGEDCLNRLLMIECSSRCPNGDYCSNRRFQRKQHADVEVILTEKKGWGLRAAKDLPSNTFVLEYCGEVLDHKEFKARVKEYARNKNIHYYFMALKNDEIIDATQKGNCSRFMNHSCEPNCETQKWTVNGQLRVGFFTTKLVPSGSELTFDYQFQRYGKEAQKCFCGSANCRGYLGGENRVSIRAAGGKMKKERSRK
Experiment: SETD2 (1434-1711) assay
Assay type: biochemical

Cc1cccc2cc(C(=O)N[C@H]3CC[C@@H](NC(=O)CCN)CC3)[nH]c12 [compound 592]
IC50: > 50 µM

— patent US12116358B2, “Substituted indoles and methods of use thereof” (EPIZYME, INC., priority 2018, dated 2024)
